In data set [1] the test system is rats. Conditions: 30 days.
Data set [2] is described as follows: in vivo. The conditions noted are these: rat, po.
Data set [3] is described as follows: in vivo. Conditions: mouse.
Data set [4] concerns rats. Details: species or system rat (SD (SPF)). Conditions: rat, in vivo, po. As to the method:
All the rats were observed daily and general symptoms noted. Weight was measured daily, average food-intake once every three days, and average water-intake once every two days.

Data set [5] concerns rats. From the text:
Rats were sacrificed under anesthesia with ether. After observation of gross appearance of all the organs, extraction and weighing were made on spleen, lung, liver, adrenal, heart, thymus, kidney, testicles, hypophysis and thyroid. In addition to the above organs, femoral bone marrow, lymph node, stomach, intestine, pancreas, urinary bladder, prostate and central nervous system were removed and fixed in 10% formaline solution.

The next data set deals with mouse. The conditions noted are these: oral.
In data set [6] the test system is rats. This is another data set of the same source.

Where two headings read alike, the source gives them in different places.

A word on the LD50: it is the dose at which mortality reaches 50%. A low value points to a more toxic substance.

In the case of `COC(=O)[C@H]1[C@H]2C[C@@H]3c4[nH]c5cc(OC)ccc5c4CCN3C[C@H]2C[C@@H](O)[C@@H]1OC` [MR, methylreserpate], the values for the GPT in the data set with rats [1] (25.0 mg/kg), in the data set on rats [1] (50.0 mg/kg) and in the data set with rats [1] (100.0 mg/kg) were 36.6±1.55 K.U, 38.8±2.21 K.U and 32.7±1.67 K.U, respectively. Besides, the LD50 in the data set “in vivo [2]” was 479 mg/kg; in “in vivo [3]” (iv) it was 48 mg/kg; in “in vivo [3]” (po) it was 210 mg/kg. Besides, the lethal dose in the data set with rats [4] is on record as 200 mg/kg. Further, the “Absolute weight Adrenal” value turned out to be 27.86 ± 1.69 mg in the data set on rats [5] (25.0 mg/kg); 33.17 ± 2.22 mg in the data set with rats [5] (50.0 mg/kg); 34.92 ± 1.38 mg with rats [5] (100.0 mg/kg, P<0.01). Also, the figures for the “Absolute weight Heart” value in the data set on rats [5] (25.0 mg/kg) and in the data set on rats [5] (50.0 mg/kg) were 1.26 ± 0.03 g and 1.34 ± 0.07 g, respectively. In the data set on rats [5] (25.0 mg/kg), the “Absolute weight Testis” value was 1.71 ± 0.10 g. Further, the “LD50 as multiple of clinical dosage of RCN” value in the data set with mouse is “about 10,000 times”. Further, the R.B.C. in the data set on rats [6] (25.0 mg/kg, day 10) is 774±16.4 x10^4 /mm^3; with rats [6] (25.0 mg/kg, day 20), 872±22.0 x10^4 /mm^3; with rats [6] (25.0 mg/kg, day 30), 913±8.7 x10^4 /mm^3; with rats [6] (50.0 mg/kg, day 10) it was 771±10.8 x10^4 /mm^3; in the data set on rats [6] (50.0 mg/kg, day 20), 864±19.8 x10^4 /mm^3; with rats [6] (100.0 mg/kg, day 10), 805±17.3 x10^4 /mm^3. The R.B.C. in the data set with rats [6] (100.0 mg/kg, day 20, significant vs control) is on record as 908±17.2 x10^4 /mm^3; in the data set on rats [6] (200.0 mg/kg, day 10, 4 rats, significant vs control), 877±69.2 x10^4 /mm^3.

Values taken from patent US4238491A (priority 1977, dated 1980).
